Target: Metabotropic glutamate receptor 1 (Homo sapiens, UniProt Q13255)
Test: Effective concentration for half maximal stimulation of PI hydrolysis (mGluR1a)

Protein sequences, listed by entry. Tags and fused reporters are not part of them. Lines headed by an entry give the natural chain unless they say otherwise; changes in a name come on top.
UniProt Q13255: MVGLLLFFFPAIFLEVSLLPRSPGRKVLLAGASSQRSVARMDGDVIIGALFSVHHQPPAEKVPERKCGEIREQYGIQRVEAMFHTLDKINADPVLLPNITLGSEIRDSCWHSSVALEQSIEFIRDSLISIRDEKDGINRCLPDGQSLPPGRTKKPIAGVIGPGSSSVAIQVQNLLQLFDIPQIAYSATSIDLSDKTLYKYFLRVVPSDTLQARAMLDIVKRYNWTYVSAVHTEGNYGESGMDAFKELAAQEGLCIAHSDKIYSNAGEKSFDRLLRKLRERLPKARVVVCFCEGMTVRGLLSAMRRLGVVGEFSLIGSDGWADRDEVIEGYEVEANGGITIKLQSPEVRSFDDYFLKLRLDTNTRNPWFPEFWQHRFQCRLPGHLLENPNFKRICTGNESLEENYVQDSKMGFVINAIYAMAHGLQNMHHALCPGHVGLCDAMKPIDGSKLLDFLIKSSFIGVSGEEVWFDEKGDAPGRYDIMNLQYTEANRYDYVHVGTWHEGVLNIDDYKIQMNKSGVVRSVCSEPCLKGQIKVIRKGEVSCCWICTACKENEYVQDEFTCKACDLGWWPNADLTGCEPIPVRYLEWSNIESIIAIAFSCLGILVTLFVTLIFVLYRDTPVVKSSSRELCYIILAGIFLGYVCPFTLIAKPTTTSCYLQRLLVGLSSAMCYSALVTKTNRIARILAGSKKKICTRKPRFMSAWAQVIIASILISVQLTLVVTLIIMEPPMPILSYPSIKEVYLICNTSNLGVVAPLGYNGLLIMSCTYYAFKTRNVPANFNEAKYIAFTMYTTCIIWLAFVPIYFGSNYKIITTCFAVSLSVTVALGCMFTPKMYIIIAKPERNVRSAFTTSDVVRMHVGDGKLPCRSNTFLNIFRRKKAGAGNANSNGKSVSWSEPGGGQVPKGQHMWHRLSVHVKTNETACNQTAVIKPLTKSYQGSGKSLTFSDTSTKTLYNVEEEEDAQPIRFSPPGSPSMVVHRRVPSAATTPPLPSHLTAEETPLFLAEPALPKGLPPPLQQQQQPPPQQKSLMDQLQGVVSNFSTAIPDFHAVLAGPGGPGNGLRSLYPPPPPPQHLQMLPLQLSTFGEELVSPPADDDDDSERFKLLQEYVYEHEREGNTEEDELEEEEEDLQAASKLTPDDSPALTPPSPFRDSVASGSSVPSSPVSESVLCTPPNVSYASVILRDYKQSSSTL

N[C@@H](Cn1oc(=O)[nH]c1=O)C(=O)O [QUISQUALATE]
EC50: 200 nM
